Where two headings read alike, the source gives them in different places.

Sequences of proteins named here, by UniProt entry; tags and fusion partners are left off.
UniProt G4V5G4, entry or part of it: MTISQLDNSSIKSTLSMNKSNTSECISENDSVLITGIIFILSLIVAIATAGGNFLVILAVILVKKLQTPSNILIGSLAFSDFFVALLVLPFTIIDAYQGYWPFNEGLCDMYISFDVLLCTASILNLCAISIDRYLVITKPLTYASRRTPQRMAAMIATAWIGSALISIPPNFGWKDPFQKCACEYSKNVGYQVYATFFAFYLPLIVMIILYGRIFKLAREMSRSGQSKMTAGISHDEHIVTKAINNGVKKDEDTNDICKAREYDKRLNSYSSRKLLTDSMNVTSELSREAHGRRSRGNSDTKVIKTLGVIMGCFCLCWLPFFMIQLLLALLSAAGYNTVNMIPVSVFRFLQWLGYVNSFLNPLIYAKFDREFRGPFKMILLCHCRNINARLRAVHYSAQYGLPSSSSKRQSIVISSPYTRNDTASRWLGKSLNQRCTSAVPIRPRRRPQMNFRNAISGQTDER

This note sets out measurements from patent US10426772B2, “Use of ergot alkaloids as an anthelmintic agent” (priority 2016, dated 2019).

The assay deals with Sm.5HTR (Schistosoma mansoni, UniProt G4V5G4). The assay is classed as cell-based. On the procedure:
HEK293 cells (ATCC CRL-1573.3) were cultured in DMEM supplemented with 10% fetal bovine serum (FBS), penicillin (100 units/mL), streptomycin (100 μg/mL), and L-glutamine (290 μg/mL). Cells were transiently transfected (ViaFect, Promega) as per the manufacturer's protocol at a density of 2×10^6 cells per T-25 cell-culture flask. Cells were transfected with plasmids encoding GloSensor (Promega) and either Sm.5HTR, (Smp_126730, GenBank accession number KF444051.1) or Sm.5HTRL (KX150867), both GPCRs being codon optimized for mammalian expression, or Hs.5HT7a (GenBank accession number NM_000872.4, R&D Systems) subcloned into pCS2(−). Cell culture reagents were from Invitrogen. Epitope tagged constructs were used to verify expression, and untagged constructs used for all luminescence assays.
For assays performed on adherent cells, HEK-293 cells were transferred one day post transfection to 96 well, solid white plates (Corning, cat #3917) coated with 0.01% poly-L-lysine (Sigma Aldrich) at a density of 5×10^4 cells/well in DMEM supplemented with 1% dialyzed FBS (Gibco). […] Plates were allowed to equilibrate at room temperature for two hours prior to performing luminescence assays (GloMax-Multi Detection System plate reader, Promega). […]
The protocol for screening is shown schematically in FIG. 5A. […] Luminescence was then read at a fixed time point (t=60 minutes, FIG. 5A). […]

Usually EC50 stands for the concentration at which the effect is half-maximal. In the case of `NCCc1c[nH]c2ccc(O)cc12` [5-HT, Serotonin], the EC50 (5-HT, adherent cells, F20 sensor, (−) IBMX, 60 minutes, read-out: EC50) was 700 nM and the EC50 (read-out: EC50, activation of Sm.5HTR) came out at 2000 ± 200 nM.
